The target of the assay is α-amylase from Bacillus licheniformis (Bacillus licheniformis, UniProt P06278). Briefly: biochemical. Conditions: mean ± standard deviation (n = 3). As for the experimental part: The α-glucosidase and α-amylase inhibitory activities of compounds Pyz-1 and Pyz-2 were determined using the method described in our previous works[48],[49].
All other reagents and standards were of analytical reagent grade.
The α-amylase assay was performed by reacting various concentrations of compounds with α-amylase and starch solution by following the DNSA method with minor modifications (Hashim et al., 2013). The evaluated samples were dissolved in tampon phosphate with various concentrations. The sample solution (10μL) was mixed with 240μL (sodium phosphate buffer 0.02M pH6.9) containing α-amylase (240U/mL), and incubated at 37°C for 20 min. After pre-incubation, 250 µL of 1% starch solution were added to each tube and incubated for 15 min. 1ml of dinitrosalicylic acid was added to stop the reaction, then incubate the solution in a water bath at 90°C for 10 min. The mixture was diluted with 1 mL deionized water and the absorbance (Abs) was measured at 540 nm.
The IC50 values were determined by the percentage of inhibitions at different concentrations.

By UniProt entry, the sequences of proteins in these tests, tags left out. Residues count along the entry.
UniProt P06278, 30-512: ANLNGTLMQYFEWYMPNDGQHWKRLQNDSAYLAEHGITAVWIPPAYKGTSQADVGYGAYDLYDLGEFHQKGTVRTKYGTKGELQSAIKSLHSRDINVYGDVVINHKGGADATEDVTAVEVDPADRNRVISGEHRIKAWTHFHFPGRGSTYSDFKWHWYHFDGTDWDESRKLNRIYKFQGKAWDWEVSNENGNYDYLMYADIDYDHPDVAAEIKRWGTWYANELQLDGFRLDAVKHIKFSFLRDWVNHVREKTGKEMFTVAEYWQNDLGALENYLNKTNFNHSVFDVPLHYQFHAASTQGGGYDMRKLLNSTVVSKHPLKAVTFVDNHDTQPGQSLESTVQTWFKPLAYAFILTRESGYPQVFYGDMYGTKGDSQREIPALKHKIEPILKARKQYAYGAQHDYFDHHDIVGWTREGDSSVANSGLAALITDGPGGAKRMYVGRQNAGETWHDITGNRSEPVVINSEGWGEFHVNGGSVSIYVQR

The term IC50 denotes the concentration that inhibits the measured activity by half.

For `C[C@H]1O[C@H](O[C@H]2[C@H](O)[C@@H](O)[C@@H](O[C@H]3[C@H](O)[C@@H](O)C(O)O[C@@H]3CO)O[C@@H]2CO)[C@H](O)[C@@H](O)[C@@H]1N[C@H]1C=C(CO)[C@@H](O)[C@H](O)[C@H]1O` (stereo partly shown) [Acarbose, reference compound], the midpoint of inhibition, the IC50, lay at 115.6 ± 0.57 µM.

For the origin of these results see publication PMC10789823, “Synthesis, structural characterizations, in vitro biological evaluation and computational investigations of pyrazole derivatives as potential antidiabetic and antioxidant agents” (Scientific Reports, 2024).
